Assay [1] relates to Fusobacterium varium ATCC 8501. Kind of assay: microbe, parasite or virus in culture. The settings on record: ATCC8501.
The test system of assay [2] is Peptocuccus prevotii ATCC 9321. As to the kind of experiment: microbe, parasite or virus in culture.

This is an account of results in patent US4169096A, “Antibiotic compounds” (priority 1977, dated 1979).

Converted amounts (≈) assume the structure as drawn.

Turning to `COC(=O)C1C(C)OC2(C)CC(=O)C3OC12OC(C(C)/C=C(C)/C=C/C(=O)C1=C(O)CNC1=O)C3C` (centres unmarked) [Bu-2313B], the MIC in assay [1] and in assay [2] was 0.1 µg/mL (≈ 0.199 µM) each time.
